# Reference: patent US8680108B2, “Substituted fused aryl and heteroaryl derivatives as PI3K inhibitors” (Incyte Corporation, priority 2009, dated 2014)
# Amino acid sequences for entries named in this document (tags omitted). A change or cut given only in a name is not applied to a line headed by its entry.
# UniProt O00329: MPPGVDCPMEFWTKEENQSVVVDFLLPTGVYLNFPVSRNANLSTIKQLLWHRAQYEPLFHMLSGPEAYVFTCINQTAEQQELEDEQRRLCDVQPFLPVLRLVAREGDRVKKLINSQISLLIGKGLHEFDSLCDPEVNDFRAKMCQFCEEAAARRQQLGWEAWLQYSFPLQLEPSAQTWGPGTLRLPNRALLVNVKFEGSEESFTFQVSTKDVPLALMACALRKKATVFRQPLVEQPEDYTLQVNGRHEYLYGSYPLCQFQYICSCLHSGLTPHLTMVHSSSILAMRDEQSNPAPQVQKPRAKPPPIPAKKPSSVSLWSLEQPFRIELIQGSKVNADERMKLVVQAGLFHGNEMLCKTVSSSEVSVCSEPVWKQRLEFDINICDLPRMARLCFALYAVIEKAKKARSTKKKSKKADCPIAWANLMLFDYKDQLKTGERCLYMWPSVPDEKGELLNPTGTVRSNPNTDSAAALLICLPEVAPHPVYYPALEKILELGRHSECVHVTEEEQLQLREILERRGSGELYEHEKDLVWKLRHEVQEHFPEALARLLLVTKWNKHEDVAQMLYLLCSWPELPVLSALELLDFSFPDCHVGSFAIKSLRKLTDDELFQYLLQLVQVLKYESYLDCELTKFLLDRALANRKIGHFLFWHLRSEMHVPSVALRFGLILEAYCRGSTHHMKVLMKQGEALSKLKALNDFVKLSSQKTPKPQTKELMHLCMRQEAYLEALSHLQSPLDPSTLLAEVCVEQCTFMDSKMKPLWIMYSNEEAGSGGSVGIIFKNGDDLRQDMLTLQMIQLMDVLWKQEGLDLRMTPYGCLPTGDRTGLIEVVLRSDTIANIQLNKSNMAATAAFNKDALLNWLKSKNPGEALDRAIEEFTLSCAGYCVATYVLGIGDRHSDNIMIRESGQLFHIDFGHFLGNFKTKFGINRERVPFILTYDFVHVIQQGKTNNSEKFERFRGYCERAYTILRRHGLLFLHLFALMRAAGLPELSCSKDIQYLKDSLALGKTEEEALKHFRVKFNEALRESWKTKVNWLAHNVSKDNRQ
# Target: T1, PI3Kδ (p110δ/p85α) (Homo sapiens, UniProt O00329)
# T1 construct: purchased Millipore (Bedford, Mass.)
# Test: PI3Kδ scintillation proximity assay
# Format: biochemical
# Source text: Materials: [γ-^33P]ATP (10 mCi/mL) was purchased from Perkin-Elmer (Waltham, Mass.). Lipid kinase substrate, D-myo-Phosphatidylinositol 4,5-bisphosphate (PtdIns(4,5)P2)D (+)-sn-1,2-di-O-octanoylglyceryl, 3-O-phospho linked (PIP2), CAS 204858-53-7, was purchased from Echelon Biosciences (Salt Lake City, Utah). PI3Kδ (p110δ/p85α) was purchased from Millipore (Bedford, Mass.). ATP, MgCl2, DTT, EDTA, MOPS and CHAPS were purchased from Sigma-Aldrich (St. Louis, Mo.). Wheat Germ Agglutinin (WGA) YSi SPA Scintillation Beads was purchased from GE healthcare life sciences (Piscataway, N.J.).
# Assay: The kinase reaction was conducted in polystyrene 384-well matrix white plate from Thermo Fisher Scientific in a final volume of 25 μL. Inhibitors were first diluted serially in DMSO and added to the plate wells before the addition of other reaction components. The final concentration of DMSO in the assay was 0.5%. The PI3K assays were carried out at room temperature in 20 mM MOPS, pH 6.7, 10 mM MgCl2, 5 mM DTT and CHAPS 0.03%. Reactions were initiated by the addition of ATP, the final reaction mixture consisted of 20 μM PIP2, 20 μM ATP, 0.2 μCi [γ-^33P] ATP, 4 nM PI3Kδ. Reactions were incubated for 210 minutes and terminated by the addition of 40 μL SPA beads suspended in quench buffer: 150 mM potassium phosphate pH 8.0, 20% glycerol. 25 mM EDTA, 400 μM ATP. The final concentration of SPA beads is 1.0 mg/mL. After the plate sealing, plates were shaken overnight at room temperature and centrifuged at 1800 rpm for 10 minutes, the radioactivity of the product was determined by scintillation counting on Topcount (Perkin-Elmer). IC50 determination was performed by fitting the curve of percent control activity versus the log of the inhibitor concentration using the GraphPad Prism® 3.0 software.
row,IC50,SMILES
1,> 1000 nM,"CC(Nc1ncnc2[nH]cnc12)c1cc(Cl)c2ccnnc2c1-c1cccc(F)c1 (single isomer, unassigned) [Example 18, N-{1-[5-Chloro-8-(3-fluorophenyl)cinnolin-7-yl]ethyl}-9H-purin-6-amine]"
2,< 50 nM,"CC(Nc1ncnc2[nH]cnc12)c1cc(Cl)c2ccnnc2c1-c1cccc(F)c1 (stereo not drawn) [Example 16, N-{1-[5-Chloro-8-(3-fluorophenyl)cinnolin-7-yl]ethyl}-9H-purin-6-amine]"
3,< 50 nM,"C[C@H](Nc1ncnc2[nH]cnc12)c1cc(Cl)c2ccnnc2c1-c1cccc(F)c1 [Example 108, N-{(1S)-1-[5-chloro-8-(3-fluorophenyl)cinnolin-7-yl]ethyl}-9H-purin-6-amine adipic acid salt]"

# Counter-ions that a name gives are not always drawn.
